Here are results for two compounds from paper PMC3542538 (Journal of medicinal chemistry, 2012).

Sequences of proteins named here, by UniProt entry; tags and fusion partners are left off.
UniProt Q9NUW8, whole entry: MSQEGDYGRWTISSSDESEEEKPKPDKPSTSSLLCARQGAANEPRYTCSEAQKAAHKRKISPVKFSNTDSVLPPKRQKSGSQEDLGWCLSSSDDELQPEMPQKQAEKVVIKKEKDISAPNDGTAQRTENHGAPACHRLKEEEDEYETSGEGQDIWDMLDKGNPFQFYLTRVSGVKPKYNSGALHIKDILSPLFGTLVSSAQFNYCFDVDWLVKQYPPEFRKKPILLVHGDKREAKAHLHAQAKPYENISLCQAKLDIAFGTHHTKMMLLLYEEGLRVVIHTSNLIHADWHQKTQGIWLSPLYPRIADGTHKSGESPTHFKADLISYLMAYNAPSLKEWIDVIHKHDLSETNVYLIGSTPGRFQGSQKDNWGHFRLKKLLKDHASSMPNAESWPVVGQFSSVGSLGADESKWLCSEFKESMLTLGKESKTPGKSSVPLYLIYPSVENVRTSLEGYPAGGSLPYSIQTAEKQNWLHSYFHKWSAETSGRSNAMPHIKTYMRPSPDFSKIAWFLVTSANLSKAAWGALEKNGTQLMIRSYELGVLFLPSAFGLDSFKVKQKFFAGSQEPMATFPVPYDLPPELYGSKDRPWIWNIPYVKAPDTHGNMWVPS

Entries after “also recorded” stand apart in the source; their conditions may differ.

Assay [1] addresses T1, Tdp1 (Homo sapiens, UniProt Q9NUW8). The settings on record: SPR, 1:1 binding model. A general note: SPR reads the build-up and loss of mass on a sensor chip optically.
Assay [2] concerns the target T1, Tdp1. The assay is classed as biochemical.

For `Cn1c2c(c3ccc(NC(=O)C(=O)O)cc3c1=O)C(=O)c1ccccc1-2` [Compound 14], on Tdp1 [1], the kd was determined as 0.24 s⁻¹. `CC(=O)Nc1ccc2c3c(n(CCCN)c(=O)c2c1)-c1ccccc1C3O` (centres unmarked) [Compound 61]: the “Tdp1 inhibitory activity (in words)” value at Tdp1 [2] is reported as “not active; also recorded: abolished the activity”.
